Results published in patent US20090209570A1 (priority 2001, published 2009).

Protein sequences, listed by entry. Tags and fused reporters are not part of them.
UniProt P33535, whole entry: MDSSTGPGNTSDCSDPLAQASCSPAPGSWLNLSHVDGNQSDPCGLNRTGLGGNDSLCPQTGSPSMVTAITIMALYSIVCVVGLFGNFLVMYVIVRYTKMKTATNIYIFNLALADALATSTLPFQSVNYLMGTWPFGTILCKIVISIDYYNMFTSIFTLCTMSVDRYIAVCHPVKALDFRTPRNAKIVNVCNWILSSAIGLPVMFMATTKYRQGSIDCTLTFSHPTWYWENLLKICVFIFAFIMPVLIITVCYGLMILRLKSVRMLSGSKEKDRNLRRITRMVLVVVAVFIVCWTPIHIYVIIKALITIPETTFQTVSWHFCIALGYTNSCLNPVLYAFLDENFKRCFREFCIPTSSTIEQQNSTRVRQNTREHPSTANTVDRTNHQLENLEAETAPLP

Target: T1, μ-opioid receptors (Rattus norvegicus, UniProt P33535)
T1 construct: from tissue; host or cells: rat brain homogenate
Assay: Opioid receptor binding studies with [3H]DAMGO on rat's brain homogenisates

Work on CO[C@@]12CC[C@H](N[C@@H](C)C(=O)O)[C@@H]3Oc4c(O)ccc5c4[C@@]31CCN(C)C2C5 [Compound 7, (2′S)-2′-(4,5α-epoxy-3-hydroxy-14β-methoxy-17-methylmorphinan-6α-ylamino)-propionic acid bis(tetrafluoroborate)] yielded a Ki of 0.77 nM.

Compound CO[C@@]12CC[C@@H](N[C@@H](C)C(=O)O)[C@@H]3Oc4c(O)ccc5c4[C@@]31CCN(C)C2C5 [Compound 8, (2′S)-2′-(4,5α-epoxy-3-hydroxy-14β-methoxy-17-methylmorphinan-6β-ylamino)-propionic acid bis(tetrafluoroborate)] has a Ki of 1.9 nM.
